According to patent US8772480B2, “Inhibitors of PI3 kinase and/or mTOR” (priority 2009, dated 2014):

Biological target: mammalian target of rapamycin (mTOR) (Homo sapiens (Human), UniProt P42345)
Experiment: biochemical

Compound | IC50 [nM]
COc1ncc(Nc2ncc(C(C)CO)cc2-c2nc(C)nc(N)n2)cc1F (single isomer, unassigned) [312 First eluting, 2-(5-(4-Amino-6-methyl-1,3,5-triazin-2-yl)-6-(5-fluoro-6-methoxypyridin-3-ylamino)pyridin-3-yl)propan-1-ol] | > 10000
COc1ccc(Nc2ncc(CNc3cccnc3)cc2-c2nc(C)nc3[nH]cnc23)cn1 [Example 79, N-(6-methoxypyridin-3-yl)-3-(2-methyl-9H-purin-6-yl)-5-((pyridin-3-ylamino)methyl)pyridin-2-amine] | > 10000
COc1ccc(Nc2ncc([C@@H](O)C(C)(C)C)cc2-c2nc(C)nc3c2ncn3C2CCCCO2)cn1 (stereo partly drawn) [Example 132, (1S)-1-(6-(6-Methoxypyridin-3-Ylamino)-5-(2-Methyl-9-(Tetrahydro-2H-Pyran-2-yl)-9H-Purin-6-yl)Pyridin-3-yl)-2,2-Dimethylpropan-1-ol] | 129
COc1ccc(Nc2ncc([C@H](O)C(C)(C)C)cc2-c2nc(C)nc3c2ncn3C2CCCCO2)cn1 (stereo partly drawn) [Example 133, (1R)-1-(6-(6-Methoxypyridin-3-Ylamino)-5-(2-Methyl-9-(Tetrahydro-2H-Pyran-2-yl)-9H-Purin-6-yl)Pyridin-3-yl)-2,2-Dimethylpropan-1-ol] | 251
Cc1nc(N)nc(-c2cc(CN3CCOCC3)cnc2Nc2cnc(Cl)c(NS(=O)(=O)N(C)C)c2)n1 [Example 333, N′-(5-((3-(4-Amino-6-Methyl-1,3,5-Triazin-2-yl)-5-(4-Morpholinylmethyl)-2-Pyridinyl)Amino)-2-Chloro-3-Pyridinyl)-N,N-Dimethylsulfamide] | 523
COc1ccc(Nc2ncc(CN3CCN(C(=O)N(C)C4CC4)CC3)cc2-c2nc(C)nc(N)n2)cn1 [Example 359, 4-((5-(4-Amino-6-Methyl-1,3,5-Triazin-2-yl)-6-(6-Methoxypyridin-3-Ylamino)Pyridin-3-yl)Methyl)-N-Cyclopropyl-N-Methylpiperazine-1-Carboxamide] | 2990
